Measured affinities in a library of Ab-14 heavy chain variants

The target is the same throughout: PDVDLGDISGINAS, from the HR2 region of SARS-CoV-2 spike.

The variants keep the light chain, the linker and the frameworks of Ab-14 (scFv order VH, the linker GGGGSGGGGSGGGGS, VL).
VH: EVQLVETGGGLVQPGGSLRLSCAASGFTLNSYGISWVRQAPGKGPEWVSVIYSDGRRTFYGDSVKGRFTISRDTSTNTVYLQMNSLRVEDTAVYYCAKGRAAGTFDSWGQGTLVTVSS
VL: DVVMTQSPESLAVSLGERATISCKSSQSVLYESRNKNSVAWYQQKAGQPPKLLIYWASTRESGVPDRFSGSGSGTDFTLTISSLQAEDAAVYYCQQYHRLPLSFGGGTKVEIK

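The variants were designed computationally from a first round of random CDR variants and then made and measured. Several design methods are mixed in this list. AlphaSeq pools MATa yeast showing the antibodies with MATalpha yeast showing the peptide. Mating (16 h, 30 °C) was followed by selection of diploids and sequencing of their barcodes. A regression on co-assayed BCL2-family reference pairs converts the normalised counts of each replicate to an apparent Kd. Mating was done six times.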

Variants are written as CDR1, CDR2 and CDR3 of the heavy chain (limits as in the source). Parent: GFTLNSYGIS, VIYSDGRRTFYGDSVK, GRAAGTFDS. The read-out is the apparent dissociation constant on a log10 scale (nM): the lower, the stronger. A mean of the replicates is given; it leaves out those without a signal. "no signal" means that the variant was in the library but no mating with the target was seen in any replicate; the authors take this as a sign of poor binding, and no number exists. Where one sequence has several entries in the source, the replicates are pooled.

CDR-H1,CDR-H2,CDR-H3,"log10 Kd (nM), mean",detected
GFDLNEYGIS,VIYADGRRTFYADSVK,GKNAGTIFV,1.63,6/6
GFTLESYGIS,VIYSDGRRTFYGDSVK,GKEAGTFDS,1.54,5/6
GFDIEEYGIS,VIYADGQRKSYINSFK,GQSNGTGMY,2.81,1/6
GFSLGEYGIS,VIYADGVRQSYADKVK,GKNGAFSLV,no signal,0/6
GFTLNSYGIS,VIYSDGKRTFYIDSVK,GQAAGTFDS,1.52,3/6
GFDLNEYGIS,VIYADGKRKAYADSVK,GQNAGTFDV,-0.70,6/6
GFDLNEYGIS,VIYADGMRTAYADSVK,GNVAGTFDT,-0.65,6/6
GFTLNEYGIS,VIYADGRRTFYGDSVK,GRACGTFDS,-0.89,6/6
GFTLRSYGIS,VIYSDGRRTFYGDSFK,GRNAGTFDS,2.33,3/6
GFYLNSYGIS,VIYADGRRTFYGVSVK,GRAAGTNKS,no signal,0/6
GFDLNEYGIS,VIYADGMRTHYTDSVK,GNEAGTFDT,0.07,6/6
GFDLNEYGIS,VIYADGLRTSYDDSVK,GQIAGTFDQ,-0.09,6/6
GFTLNSYGIS,VIYSDGRRTEYGDSVK,GFIAGTFDS,0.12,6/6
GFDLMNYGIS,VIYADGKRAAYIDDVK,GYSTGFIDV,2.04,1/6
GFDLNEYGIS,VIYADGVRTFYTDNVK,GQNAGTFDS,-0.75,6/6
GFDLDEYGIS,VIYADGMRTAYADSVK,GNEAGTFDM,-0.53,6/6
GFDLNEYGIS,VIYADGMRTVYADSVK,GGNAGTFDV,-0.67,6/6
GFDLEEYGIS,VIYADGRRTFYSDSVK,GEAAGTFDM,0.12,6/6
GFTLNEYGIS,VIYSDGRRTFYGDSVK,GRCAGTFDS,no signal,0/6
GFTLNNYGIS,VIYSDGRRTFYDDSVK,GRLAGTFDS,1.32,5/6
GFDLQEYGIS,VIYADGSRTAYNQNVK,GLTLDSYDV,no signal,0/6
GFSLNSYGIS,VIYSDGRRTFYGDSVK,GRNAGTFDS,0.22,12/12
GFDLNSYGIS,VIYSDGRRTFYGDSVK,GRAAWTFWS,no signal,0/6
GFTLNDYGIS,VIYSDGRRTFYGDSVK,GRMAGTFTS,1.67,1/6
GFQLNEYGIS,VIYSDGRRTFYQDSVK,GRAAGTFDS,0.62,6/6
GFDLNSYGIS,VIYSDGKRTFYGDSVK,GRTAGTFDE,0.11,6/6
GFTLNSYGIS,VIYAAGRRTFYGDSVK,GRAAGTNKS,no signal,0/6
GFTLSSYGIS,VIYADGRRVAYGDSVK,GRAAGTFDS,-0.01,6/6
GADLQEYGIS,VIYADGNRYAYANSVK,GTQAGSLIV,no signal,0/6
GFTLNSTGIS,VIYSDGRRTFYSDSVK,GRAGGTFDS,no signal,0/6
GFNLDEYGIS,VIYADGLRRQYVDDVK,GSHADMFNM,no signal,0/6
GFTLNSYGIS,VIYSDGRRTFYGDSVK,GFAAGCFDN,no signal,0/6
GFDLDEYGIS,VIYADGRRTFYQDSVK,GQAAGTFDM,-0.17,6/6
GFDLNEYGVS,VIYADGHRVQYTEDVK,GGNSGAVDM,2.16,1/6
GFTLNSYGIS,VIYSDGRRHFYSDSVK,GRAGGTFDS,1.84,6/6
GFDLNEYGIS,VIYADGKRTAYSDSVK,GGNAGTFDL,-0.32,6/6
GFQLNSYGIS,VIYSDGRRTAYGDSVK,GRTAGTFDS,0.26,6/6
GFSLDEYGIS,VIYADGMRTAYTADVK,GVKGEDVVT,no signal,0/6
GFVLNSYGIS,VIYSDGRRTFYADSVK,GRMAGTFDS,0.00,1/6
GFSINEYGIS,VIYADGLRQFYTNAVK,GMAAGTFDQ,1.15,6/6
GFTLNSYGIS,VIYSDGRRTFYGDDVK,GREAGTFDS,0.79,6/6
GFTLNSYGIS,VIYSDGRRTFYDDSYK,HKAADPFMS,no signal,0/6
GFTLNSYGIS,VIYSDGVRVFYGDSVK,GRAAGTFDS,no signal,0/6
GFTLTSYGIS,VIYADGRRTFYGDSVK,GRAAGTFWS,no signal,0/6
GFDLDEYGIS,VIYADGQRTAYADSVK,GNEAGTFDV,-0.40,6/6
GFTPNSYGIS,VIYSDGRRTFYGDSVK,VRAAGTTDS,no signal,0/6
GFDLDEYGIS,VIYADGKRTAYADSVK,GNQAGTFDM,-0.54,6/6
GFDLDEYGIS,VIYADGMRTAYADSVK,GENAGTFDV,-0.42,6/6
GFSLNSYGIS,VIYSDGRKTFMGDRVK,GRDAGTFDS,no signal,0/6

A selection of 3 entries from above:

CDR-H1,CDR-H2,CDR-H3,"log10 Kd (nM), mean",detected
GFDLEEYGIS,VIYADGRRTFYSDSVK,GEAAGTFDM,0.12,6/6
GFDLNSYGIS,VIYSDGRRTFYGDSVK,GRAAWTFWS,no signal,0/6
GFTLNNYGIS,VIYSDGRRTFYDDSVK,GRLAGTFDS,1.32,5/6

As a blank, each scFv also met three strains without target: over all heavy chain designs, 1% of these pairings were detected, typically at 2.08 and seldom below 0.84. The range of this assay differs from that of the first round, and the authors advise against merging the two. The authors averaged sequences with at least three values out of six and counted those with two or fewer as poor binders.

Data: MIT Lincoln Laboratory AlphaSeq set, Li et al. 2023, doi:10.1038/s41467-023-39022-2, as distributed in FLAb.